Laboratory results from PubChem BioAssay (NCI).
Some results for these compounds are left out of this collection, so the calls shown say nothing about other tests.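 Assay format: 96-well plates, 48-hour exposure. At the GI50, growth is halved. At the TGI there is no net growth.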

Columns and labels:
Assay in all cases: growth of human tumour cells (NCI), 48 h; in the data active = GI50 below about 0.43 µM; inactive = the rest
OVCAR-4 ovarian = test system: OVCAR-4 ovarian
A498 renal = test system: A498 renal
HCT-116 colon = test system: HCT-116 colon
SK-MEL-5 melanoma = test system: SK-MEL-5 melanoma
UACC-62 melanoma = test system: UACC-62 melanoma
NCI-H23 lung = test system: NCI-H23 lung
SN12C renal = test system: SN12C renal
TK-10 renal = test system: TK-10 renal
CCRF-CEM leukemia = test system: CCRF-CEM leukemia
OVCAR-8 ovarian = test system: OVCAR-8 ovarian
COLO 205 colon = test system: COLO 205 colon
RXF 393 renal = test system: RXF 393 renal
UO-31 renal = test system: UO-31 renal
MDA-N = test system: MDA-N
HCT-15 colon = test system: HCT-15 colon
HT29 colon = test system: HT29 colon
SF-295 CNS = test system: SF-295 CNS
SNB-75 CNS = test system: SNB-75 CNS
MCF7 breast = test system: MCF7 breast
CAKI-1 renal = test system: CAKI-1 renal
LOX IMVI melanoma = test system: LOX IMVI melanoma
HS 578T breast = test system: HS 578T breast
NCI-H522 lung = test system: NCI-H522 lung
OVCAR-3 ovarian = test system: OVCAR-3 ovarian
U251 CNS = test system: U251 CNS
MOLT-4 leukemia = test system: MOLT-4 leukemia
SK-MEL-2 melanoma = test system: SK-MEL-2 melanoma
RPMI-8226 leukemia = test system: RPMI-8226 leukemia
OVCAR-5 ovarian = test system: OVCAR-5 ovarian
MALME-3M melanoma = test system: MALME-3M melanoma
SK-MEL-28 melanoma = test system: SK-MEL-28 melanoma
ACHN renal = test system: ACHN renal
MDA-MB-435 = test system: MDA-MB-435
NCI-H322M lung = test system: NCI-H322M lung
MDA-MB-231 breast = test system: MDA-MB-231 breast
HOP-62 NSCLC = test system: HOP-62 NSCLC
786-0 renal = test system: 786-0 renal
M14 melanoma = test system: M14 melanoma
SF-539 CNS = test system: SF-539 CNS
EKVX NSCLC = test system: EKVX NSCLC
UACC-257 melanoma = test system: UACC-257 melanoma
IGROV1 ovarian = test system: IGROV1 ovarian
SW-620 colon = test system: SW-620 colon
K-562 leukemia = test system: K-562 leukemia
PC-3 prostate = test system: PC-3 prostate
SK-OV-3 ovarian = test system: SK-OV-3 ovarian
BT-549 breast = test system: BT-549 breast
HL-60(TB) leukemia = test system: HL-60(TB) leukemia
NCI/ADR-RES ovarian = test system: NCI/ADR-RES ovarian
DU-145 prostate = test system: DU-145 prostate
SR leukemia = test system: SR leukemia
A549 NSCLC = test system: A549 NSCLC
T-47D breast = test system: T-47D breast
SF-268 CNS = test system: SF-268 CNS

CCC#CC(O)(C(=O)OC1C2CCN(CC2)C1C)c1ccccc1 (stereo not drawn)
inactive: GI50 (OVCAR-4 ovarian) > 100 µM | GI50 (A498 renal) > 100 µM | GI50 (HCT-116 colon) > 100 µM | GI50 (SK-MEL-5 melanoma) > 100 µM | GI50 (UACC-62 melanoma) > 100 µM | GI50 (NCI-H23 lung) > 100 µM | GI50 (SN12C renal) > 100 µM | GI50 (TK-10 renal) > 100 µM | GI50 (CCRF-CEM leukemia) > 100 µM | GI50 (OVCAR-8 ovarian) 16.9 µM | GI50 (COLO 205 colon) > 100 µM | GI50 (RXF 393 renal) > 100 µM | GI50 (UO-31 renal) > 100 µM | GI50 (MDA-N) > 100 µM | GI50 (HCT-15 colon) > 100 µM | GI50 (HT29 colon) > 100 µM | GI50 (SF-295 CNS) > 100 µM | GI50 (SNB-75 CNS) > 100 µM | GI50 (MCF7 breast) > 100 µM | GI50 (CAKI-1 renal) > 100 µM | GI50 (LOX IMVI melanoma) > 100 µM | GI50 (HS 578T breast) > 100 µM | GI50 (NCI-H522 lung) > 100 µM | GI50 (OVCAR-3 ovarian) > 100 µM | GI50 (U251 CNS) > 100 µM | GI50 (MOLT-4 leukemia) > 100 µM | GI50 (SK-MEL-2 melanoma) > 100 µM | GI50 (RPMI-8226 leukemia) > 100 µM | GI50 (OVCAR-5 ovarian) > 100 µM | GI50 (MALME-3M melanoma) > 100 µM | GI50 (SK-MEL-28 melanoma) > 100 µM | GI50 (ACHN renal) > 100 µM | GI50 (MDA-MB-435) > 100 µM | GI50 (NCI-H322M lung) > 100 µM | GI50 (MDA-MB-231 breast) > 100 µM | GI50 (HOP-62 NSCLC) > 100 µM | GI50 (786-0 renal) 79.8 µM | GI50 (M14 melanoma) > 100 µM | GI50 (SF-539 CNS) > 100 µM | GI50 (EKVX NSCLC) > 100 µM | GI50 (UACC-257 melanoma) > 100 µM | GI50 (IGROV1 ovarian) > 100 µM | GI50 (SW-620 colon) > 100 µM | GI50 (K-562 leukemia) > 100 µM | GI50 (PC-3 prostate) > 100 µM | GI50 (SK-OV-3 ovarian) > 100 µM | GI50 (BT-549 breast) > 100 µM | GI50 (HL-60(TB) leukemia) > 100 µM | GI50 (NCI/ADR-RES ovarian) 62 µM | GI50 (DU-145 prostate) > 100 µM | GI50 (SR leukemia) > 100 µM | GI50 (A549 NSCLC) > 100 µM | GI50 (T-47D breast) > 100 µM | GI50 (SF-268 CNS) > 100 µM
32 µM: TGI (OVCAR-8 ovarian)
> 100 µM: TGI (OVCAR-4 ovarian) | TGI (A498 renal) | TGI (HCT-116 colon) | TGI (SK-MEL-5 melanoma) | TGI (UACC-62 melanoma) | TGI (NCI-H23 lung) | TGI (SN12C renal) | TGI (TK-10 renal) | TGI (CCRF-CEM leukemia) | TGI (COLO 205 colon) | TGI (RXF 393 renal) | TGI (UO-31 renal) | TGI (MDA-N) | TGI (HCT-15 colon) | TGI (HT29 colon) | TGI (SF-295 CNS) | TGI (SNB-75 CNS) | TGI (MCF7 breast) | TGI (CAKI-1 renal) | TGI (LOX IMVI melanoma) | TGI (HS 578T breast) | TGI (NCI-H522 lung) | TGI (OVCAR-3 ovarian) | TGI (U251 CNS) | TGI (MOLT-4 leukemia) | TGI (SK-MEL-2 melanoma) | TGI (RPMI-8226 leukemia) | TGI (OVCAR-5 ovarian) | TGI (MALME-3M melanoma) | TGI (SK-MEL-28 melanoma) | TGI (ACHN renal) | TGI (MDA-MB-435) | TGI (NCI-H322M lung) | TGI (MDA-MB-231 breast) | TGI (HOP-62 NSCLC) | TGI (786-0 renal) | TGI (M14 melanoma) | TGI (SF-539 CNS) | TGI (EKVX NSCLC) | TGI (UACC-257 melanoma) | TGI (IGROV1 ovarian) | TGI (SW-620 colon) | TGI (K-562 leukemia) | TGI (PC-3 prostate) | TGI (SK-OV-3 ovarian) | TGI (BT-549 breast) | TGI (HL-60(TB) leukemia) | TGI (NCI/ADR-RES ovarian) | TGI (DU-145 prostate) | TGI (SR leukemia) | TGI (A549 NSCLC) | TGI (T-47D breast) | TGI (SF-268 CNS)
